From patent US6934639B1, “Methods for designing agents that interact with MMP-13” (Wyeth, priority 2000, dated 2005)

Target: MMP-13 (Homo sapiens, UniProt P45452)
Experiment: MMP-13 enzyme inhibition (IC50)
Assay type: biochemical

- IC50: 33 nM
Structure (SMILES): COc1ccc(S(=O)(=O)N(Cc2cccnc2)c2c(C)cccc2C(=O)NO)cc1 [Compound A, N-Hydroxy-2-[(4-methoxy-benzenesulfonyl)-pyridin-3-ylmethyl-amino]-3-methyl-benzamide]
